# Results as given in PMC10710080 (Proceedings of the National Academy of Sciences of the …, 2023).
# B1: masked antagonist MA19 after TEV protease treatment (other)
# chain: DSPDRPWNPPTFSPALLVVTEGDNATFTCSFSNTSESFHVVWHRESPSGQTDTLAAFPEDRSQPGQDARFRVTQLPNGRDFHMSVVRARRNDSGTYVCGVISLAPKIQIKESLRAELRVTER
# Biological target: biotinylated PD-L1 (biotin (bought biotinylated; site not stated))
# Test: SPR
binder,measurement,value
B1,koff,0.00283 s⁻¹
same,kon,478000 M⁻¹ s⁻¹
